Experimental findings from patent publication US20250186432A1, “SPLEEN TYROSINE KINASE INHIBITOR, COMPOSITION, AND METHODS OF USE” (PURDUE RESEARCH FOUNDATION, priority 2022, published 2025) are described below.

Chains of the proteins cited; added tags and fusions are not shown. Residues count along the entry.
UniProt P00533, 25-1210: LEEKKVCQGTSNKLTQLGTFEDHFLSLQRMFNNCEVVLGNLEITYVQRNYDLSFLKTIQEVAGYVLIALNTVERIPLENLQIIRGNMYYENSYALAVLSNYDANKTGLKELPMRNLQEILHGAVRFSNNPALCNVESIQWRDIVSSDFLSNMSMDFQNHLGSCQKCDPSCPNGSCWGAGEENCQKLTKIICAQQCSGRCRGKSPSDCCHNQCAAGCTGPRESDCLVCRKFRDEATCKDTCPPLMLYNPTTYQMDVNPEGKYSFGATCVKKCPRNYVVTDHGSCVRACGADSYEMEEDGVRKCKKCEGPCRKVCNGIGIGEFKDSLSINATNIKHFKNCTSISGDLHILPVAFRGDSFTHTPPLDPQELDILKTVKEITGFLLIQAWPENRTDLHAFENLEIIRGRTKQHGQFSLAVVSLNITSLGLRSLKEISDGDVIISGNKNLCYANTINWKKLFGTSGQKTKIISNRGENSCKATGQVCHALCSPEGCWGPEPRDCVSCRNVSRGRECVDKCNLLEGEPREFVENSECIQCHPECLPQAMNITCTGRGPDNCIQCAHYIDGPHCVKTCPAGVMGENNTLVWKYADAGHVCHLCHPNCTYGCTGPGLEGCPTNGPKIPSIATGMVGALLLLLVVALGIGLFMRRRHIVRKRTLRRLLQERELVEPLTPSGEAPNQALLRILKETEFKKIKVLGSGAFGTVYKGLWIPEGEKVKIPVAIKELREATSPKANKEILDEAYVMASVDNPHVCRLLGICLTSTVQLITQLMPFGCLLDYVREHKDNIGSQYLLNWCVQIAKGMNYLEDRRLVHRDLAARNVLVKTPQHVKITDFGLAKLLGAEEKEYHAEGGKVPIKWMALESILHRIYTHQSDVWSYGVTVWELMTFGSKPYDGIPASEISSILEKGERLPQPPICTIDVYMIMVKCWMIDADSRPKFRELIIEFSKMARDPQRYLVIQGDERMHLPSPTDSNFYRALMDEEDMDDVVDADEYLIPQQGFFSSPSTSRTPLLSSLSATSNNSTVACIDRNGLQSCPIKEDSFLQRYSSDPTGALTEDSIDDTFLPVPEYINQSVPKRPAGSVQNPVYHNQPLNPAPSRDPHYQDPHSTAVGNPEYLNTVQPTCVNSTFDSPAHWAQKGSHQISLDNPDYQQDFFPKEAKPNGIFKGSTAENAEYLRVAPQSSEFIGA
UniProt P08581, 25-1390: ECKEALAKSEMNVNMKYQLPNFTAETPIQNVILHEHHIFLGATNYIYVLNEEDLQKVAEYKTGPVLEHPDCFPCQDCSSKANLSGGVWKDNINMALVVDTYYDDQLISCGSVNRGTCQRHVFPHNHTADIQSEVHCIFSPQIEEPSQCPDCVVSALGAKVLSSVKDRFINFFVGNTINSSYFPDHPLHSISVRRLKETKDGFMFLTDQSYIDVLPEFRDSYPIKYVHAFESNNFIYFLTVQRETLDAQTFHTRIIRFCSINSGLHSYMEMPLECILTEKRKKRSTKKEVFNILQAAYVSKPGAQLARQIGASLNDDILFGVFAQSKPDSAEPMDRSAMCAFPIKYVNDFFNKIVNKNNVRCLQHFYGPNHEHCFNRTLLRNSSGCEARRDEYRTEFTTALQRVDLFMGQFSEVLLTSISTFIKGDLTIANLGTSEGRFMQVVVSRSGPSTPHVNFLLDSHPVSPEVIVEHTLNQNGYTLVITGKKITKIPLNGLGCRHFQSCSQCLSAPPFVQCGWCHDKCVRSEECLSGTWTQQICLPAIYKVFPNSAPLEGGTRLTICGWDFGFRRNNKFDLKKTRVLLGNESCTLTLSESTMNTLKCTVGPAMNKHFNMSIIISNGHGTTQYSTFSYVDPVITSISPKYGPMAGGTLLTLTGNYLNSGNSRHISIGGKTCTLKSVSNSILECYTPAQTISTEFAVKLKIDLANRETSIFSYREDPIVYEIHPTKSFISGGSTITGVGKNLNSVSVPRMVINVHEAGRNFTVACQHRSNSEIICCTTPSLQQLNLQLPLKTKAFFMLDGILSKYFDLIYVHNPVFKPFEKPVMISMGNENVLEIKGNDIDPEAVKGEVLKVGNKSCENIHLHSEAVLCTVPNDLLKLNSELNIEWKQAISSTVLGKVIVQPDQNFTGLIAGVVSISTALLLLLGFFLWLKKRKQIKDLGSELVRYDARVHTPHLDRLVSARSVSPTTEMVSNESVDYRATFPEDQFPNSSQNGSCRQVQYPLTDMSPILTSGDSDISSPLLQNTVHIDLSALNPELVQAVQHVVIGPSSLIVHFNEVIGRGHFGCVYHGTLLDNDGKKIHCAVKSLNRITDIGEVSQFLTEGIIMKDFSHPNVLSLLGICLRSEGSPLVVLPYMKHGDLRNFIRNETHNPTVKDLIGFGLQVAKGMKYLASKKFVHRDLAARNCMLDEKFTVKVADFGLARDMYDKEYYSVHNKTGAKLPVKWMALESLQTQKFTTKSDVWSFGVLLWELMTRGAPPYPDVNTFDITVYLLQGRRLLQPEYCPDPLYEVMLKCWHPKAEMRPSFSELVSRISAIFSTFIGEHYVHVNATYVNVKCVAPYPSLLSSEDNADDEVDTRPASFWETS

One experiment concerns the target Syk (Homo sapiens, UniProt P43405). Kind of experiment: ADP-Glo kinase inhibition assay, Syk. For orientation: ADP-Glo first removes unused ATP, then detects ADP through luciferase.
The target of a further experiment is EGFR (Homo sapiens, UniProt P00533). Kind of experiment: ADP-Glo kinase inhibition assay, EGFR.
For another experiment, the target named is HGFR (Homo sapiens, UniProt P08581). The experiment in a line: ADP-Glo kinase inhibition assay, HGFR.

By IC50 is commonly meant the point on the concentration scale where inhibition reaches its midpoint. A low value points to inhibition by little substance. On to `c1cn2cc(-c3ccc4cn[nH]c4c3)nc(Nc3ccc(N4CCOCC4)cc3)c2n1` [Entospletinib], for which the IC50 against Syk turned out to be 12 nM; against EGFR, 1790 nM; against HGFR, 20600 nM.
`Nc1cncc(-c2cn3ccnc3c(Nc3ccc(N4CCN(C5COC5)CC4)cc3)n2)n1` [Lanraplenib] returned an IC50 at Syk of 136 nM.
